Data published in patent US9506926B2, “Molecular predictors of therapeutic response to specific anti-cancer agents” (The Regents of the University of California, priority 2011, dated 2016).

Test system: breast cancer cell lines
Experiment: Cell growth inhibition assay (Cell Titer Glo, 72 h drug exposure, GI50) across a breast cancer cell line panel, with subtype, copy number and growth rate association analysis
Assay type: cell-based, human
Settings: compounds excluded from further analysis

Substance: cetuximab
- Response of the cell line panel as a whole: almost none of the cell lines in the panel responded strongly
